## Melting point values, as collected for the OPERA models

Source: data files of OPERA 2.9 (Mansouri et al.), github.com/kmansouri/OPERA.

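These are experimental values that the OPERA curators gathered from public databases to train and test their QSAR models. One number stands for a compound and property, with no spread given. How each value was measured is not recorded, so precision varies. The measured form (salt, isomer or mixture) is not always the one drawn. Some entries may be limits or estimates that an upstream database listed as plain numbers.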

The melting point is given in degrees Celsius. Cells with "–" have no entry in this list. The databases behind each value are named after "via".

| SMILES | name | MP (°C) | via |
|---|---|---|---|
| O=C(O)C1CCCN1C(=O)Nc1ccccc1 (stereo unspecified) | 1-(Phenylcarbamoyl)proline | 162 | OCHEM |
| O=C(OC1CCCCC1)c1ccccc1O | Cyclohexyl 2-hydroxybenzoate | 25.8 | eChemPortal |
| Fc1ccc(-c2csc(Nc3ccccc3)n2)cc1 | 4-(4-Fluorophenyl)-N-phenyl-1,3-thiazol-2-amine | 92 | OCHEM |
| Cc1ccc(O)c(/N=N/c2ccccc2[N+](=O)[O-])c1 | Phenol, 4-methyl-2-[(2-nitrophenyl)azo]- | 117 | eChemPortal |
| NS(=O)(=O)c1ccc(F)c(C(=O)O)c1 | 2-fluoro-5-sulfamoylbenzoic acid | 187 | OCHEM |
| Cc1nc2ccccn2c1C(=O)NN | 2-methylimidazo[1,2-a]pyridine-3-carbohydrazide | 189 | OCHEM |
| Clc1nc(-c2ccccc2)nc2scc(-c3ccccc3)c12 | 4-chloro-2,5-diphenylthieno[2,3-d]pyrimidine | 148 | OCHEM |
| CC(C)CCCCCC(=O)NCCCCCC(=O)O | 6-(Isononanoylamino)hexanoic acid | 61 | eChemPortal |
| COC=C(C(=O)OC)c1ccccc1Oc1cc(Cl)ncn1 | – | 106.7 | eChemPortal |
| CCCCC(=O)OCC(=O)[C@H]1[C@H](C)C[C@H]2[C@@H]3C[C@H](F)C4=CC(=O)C=C[C@]4(C)C3=CC[C@@]21C | – | 125.7 | eChemPortal |
| O=c1sn(-c2cccc3ccccc23)c(=O)n1Cc1ccccc1 | Tideglusib | 149 | PubChem |
| Cc1ccc(-c2cc(C(=O)O)[nH]n2)cc1 | 3-(4-methylphenyl)-1H-pyrazole-5-carboxylic acid | 252 | OCHEM |
| Cc1nc2scc(-c3ccccc3)c2c(=O)n1N | Thieno(2,3-d)pyrimidin-4(3H)-one, 3-amino-2-methyl-5-phenyl- | 135 | OCHEM |
| CC(C)COC(C)(C)C | Isopropyl tert-butyl ether | -101.6 | eChemPortal |
| NC(=O)c1cc(N)cc(C(N)=O)c1 | 5-Amino-isophthalamide | 247 | OCHEM |
| COCCCN1C(=O)c2ccc3c(=O)n4c5ccc(C)cc5nc4c4ccc(c2c34)C1=O | – | 179.4 | eChemPortal |
| NC[C@H](O)c1ccc(O)c(O)c1 | Norepinephrine | 181.4 | PubChem |
| O=C(O)COc1ccccc1-c1ccccc1 | (biphenyl-2-yloxy)acetic acid | 103 | OCHEM |
| Cn1ccnc1C(=O)c1ccccc1Cl | (2-Chlorophenyl)(1-methyl-1H-imidazol-2-yl)methanone | 100 | OCHEM |
| O=C(O)C=Cc1ccccn1 | 3-(2-Pyridinyl)-2-propenoic acid | 202 | OCHEM |
| CCC1(C)OC(=O)N(C)C1=O (stereo unspecified) | Paramethadione | 31.5 | PubChem |
| O=C(O)c1ccc(N2CCOCC2)c([N+](=O)[O-])c1 | 4-(Morpholin-4-yl)-3-nitrobenzoic acid | 187 | OCHEM |
| Nc1ncc(Cc2ccccc2)s1 | 5-benzyl-1,3-thiazol-2-amine | 107 | OCHEM |
| O=C(O)c1ccc(-n2cccn2)nc1 | 6-(1H-pyrazol-1-yl)nicotinic acid | 268 | OCHEM |
| O=C(O)C1COCCO1 (stereo unspecified) | 1,4-dioxane-2-carboxylic Acid | 60 | OCHEM |
| NC(=O)Nc1ccc(C(=O)O)cc1 | Benzoic acid, p-ureido- | 297 | OCHEM |
| O=C(O)/C=C/c1ccc2c(c1)CCO2 | (2E)-3-(2,3-Dihydro-5-benzofuranyl)-2-propenoic acid | 176 | OCHEM |
| CCOc1ccc(-c2csc(N)n2)cc1 | 4-(4-Ethoxyphenyl)-1,3-thiazol-2-amine | 249 | OCHEM |
| CCCCc1oc2ccc([N+](=O)[O-])cc2c1C(=O)c1ccc(O)cc1 | – | 130.3 | eChemPortal |
| O/N=C1\CCCC2=C1C1CCC2C1=C(Cl)Cl (stereo partly drawn) | – | 182.7 | eChemPortal |
| CCOC(=O)CN(C(=O)CCl)c1ccccc1 | Glycine, N-(chloroacetyl)-N-phenyl-, ethyl ester | 132 | OCHEM |
| COC(=O)c1ccc(C#N)cc1[N+](=O)[O-] | Methyl 4-cyano-2-nitrobenzoate | 90.74 | eChemPortal |
| BrCCCCCCCCCCCBr | 1,11-Dibromoundecane | 166 | OCHEM |
| N=C(NO)c1ccccc1Cl | 2-Chloro-N-hydroxybenzene-1-carboximidamide | 89 | OCHEM |
| CC(=O)Oc1ccccc1C(=O)OCC(=O)N(C(C)C)C(C)C | 2-(Diisopropylamino)-2-oxoethyl 2-acetoxybenzoate | 108 | OCHEM |
| O=C(O)c1cc(-c2ccc(Cl)cc2)nc2ccccc12 | 2-(4-chlorophenyl)quinoline-4-carboxylic acid | 245 | OCHEM |
| Cc1cc(N)n(Cc2ccccc2)n1 | 1-benzyl-3-methyl-1H-pyrazol-5-amine | 69 | OCHEM |
| O=C(CCl)Nc1ccc(-c2ccccc2)cc1 | N-1,1'-biphenyl-4-yl-2-chloroacetamide | 122 | OCHEM |
| Cc1ccccc1NC(=O)CC#N | 2-cyano-N-(2-methylphenyl)acetamide | 134 | OCHEM |
| CCCCC(CC)COC(=O)/C=C\C(=O)O (stereo partly drawn) | – | -28 | eChemPortal |
| CCCCCCCCCCCCCC(=O)OCCCCCCCCCCCC | Tetradecanoic acid, dodecyl ester | 38.5 | eChemPortal |
| CCCNCC | 1-Propanamine, N-ethyl- | -51.5 | eChemPortal |
| Oc1c(Cl)cc(Br)cc1Cl | 4-Bromo-2,6-dichlorophenol | 169 | OCHEM |
| CCOC(=O)C(C)=CC(=O)OC | 1,4-Diethyl 2-methyl-2-butenedioate | -12 | eChemPortal |
| Cc1ccc2cc(CCl)c(Cl)nc2c1C | 2-chloro-3-(chloromethyl)-7,8-dimethylquinoline | 110 | OCHEM |
| Nc1nnc(-c2cccc(Br)c2)o1 | 5-(3-bromophenyl)-1,3,4-oxadiazol-2-amine | 210 | OCHEM |

The 6 highest values of MP among the entries above:

| SMILES | name | MP (°C) | via |
|---|---|---|---|
| NC(=O)Nc1ccc(C(=O)O)cc1 | Benzoic acid, p-ureido- | 297 | OCHEM |
| O=C(O)c1ccc(-n2cccn2)nc1 | 6-(1H-pyrazol-1-yl)nicotinic acid | 268 | OCHEM |
| Cc1ccc(-c2cc(C(=O)O)[nH]n2)cc1 | 3-(4-methylphenyl)-1H-pyrazole-5-carboxylic acid | 252 | OCHEM |
| CCOc1ccc(-c2csc(N)n2)cc1 | 4-(4-Ethoxyphenyl)-1,3-thiazol-2-amine | 249 | OCHEM |
| NC(=O)c1cc(N)cc(C(N)=O)c1 | 5-Amino-isophthalamide | 247 | OCHEM |
| O=C(O)c1cc(-c2ccc(Cl)cc2)nc2ccccc12 | 2-(4-chlorophenyl)quinoline-4-carboxylic acid | 245 | OCHEM |